pKi: −log10 of the molar value.
Molecular target: Protease (Human immunodeficiency virus 1, UniProt Q9YQ12)
Assay: Inhibition of HIV1 protease assessed as cleavage of Lys-Ala-Arg-Val-Nle-NphGlu-Ala-Nle-NH2

| pKi | Structure (SMILES) |
| --- | --- |
| 6.80 | CC(C)(C)NC(=O)[C@@H]1CN(Cc2cccnc2)CCN1C[C@H](O)C[C@@H](Cc1ccccc1)C(=O)N[C@H]1c2ccccc2C[C@H]1O |
| 8.72 | CC(C)(C)NC(=O)[C@@H]1CN(Cc2cccnc2)CCN1C[C@@H](O)C[C@@H](Cc1ccccc1)C(=O)N[C@H]1c2ccccc2C[C@H]1O |

— ChEMBL document CHEMBL3632481, “Applications of Fluorine in Medicinal Chemistry” (J Med Chem, 2015)
